Where two headings read alike, the source gives them in different places.
Columns and labels:
[1] = molecular target: memory CD4+ T cells from DP4+ donors, unstimulated (a small subset; their TCRs); experiment: flow cytometry ex vivo; 119870 evts in the dimer- CD4+ gate
[2] = molecular target: memory CD4+ T cells from DP4+ donors, unstimulated (a small subset; their TCRs); experiment: flow cytometry ex vivo; 53379 evts in the dimer- CD4+ gate
[3] = molecular target: memory CD4+ T cells from DP4+ donors, unstimulated (a small subset; their TCRs); experiment: flow cytometry ex vivo; 68024 evts in the dimer- CD4+ gate
[4] = molecular target: memory CD4+ T cells from DP4+ donors, unstimulated (a small subset; their TCRs); experiment: flow cytometry ex vivo; 64371 evts in the dimer- CD4+ gate
[5] = molecular target: memory CD4+ T cells from DP4+ donors, unstimulated (a small subset; their TCRs); experiment: flow cytometry ex vivo; 156509 evts in the dimer- CD4+ gate
[6] = molecular target: DQ5 (DQA1*01:01-DQB1*05:01)-restricted DDX3Y-specific TCR (E6)
[7] = molecular target: DP4/MAGE-A3243-258 TCR, clone R12C9; experiment: flow cytometry, TCR-transduced primary T cells
[8] = molecular target: DP4/MAGE-A3243-258 TCR, clone R12C9; experiment: flow cytometry, TCR-transduced CD4+ T cells
[9] = molecular target: endogenous (untransduced) NY-ESO-1157-170 specific CD4+ T cells (their TCRs); experiment: flow cytometry, stimulated donor CD4+ T cells
[10] = molecular target: DQ5 (DQA1*01:01-DQB1*05:01)-restricted DDX3Y-specific TCR (E6); remark: listed apart in the source
[11] = molecular target: DQ5 (DQA1*01:01-DQB1*05:01)-restricted DDX3Y-specific TCR (E6); remark: listed apart in the source
[12] = molecular target: stimulated CD4+ T cells of a DQ5.1+ melanoma patient (their TCRs)
[13] = molecular target: DP4^L112W/V141M on K562 cells / K562-based aAPCs (human) (UniProt P20036); experiment: flow cytometry, aAPCs
[14] = molecular target: DQ5 (DQA1*01:01-DQB1*05:01)-restricted DDX3Y-specific TCR (E6); remark: listed apart in the source

Substance: CLIP DP4^L112W/V141M dimer (peptide-MHC)
- events in the dimer+ CD4+ gate [1]: 1 evts
- events in the dimer+ CD4+ gate [2]: 1 evts
- events in the dimer+ CD4+ gate [3]: 0 evts
- events in the dimer+ CD4+ gate [4]: 1 evts
- events in the dimer+ CD4+ gate [5]: 1 evts

Substance: CLIP dimer, DQ5^L114W/V143M (peptide-MHC)
- percent multimer-positive CD4+ cells (number at the gate) [6]: 0.1%

Substance: DP4^L112W/V141M dimer loaded with MAGE-A3243-258 (peptide-MHC)
- % dimer+ CD4+ cells [7]: 25.6%
- % dimer+ Vβ22+ cells [8]: 35%

Substance: DP4^L112W/V141M dimer loaded with NY-ESO-1157-170 (peptide-MHC)
- % dimer+ CD4+ cells [7]: 0.4%
- % dimer+ CD4+ cells [9]: 2.3%

Substance: DP4^L112W/V141M dimer loaded with WT1328-348 (peptide-MHC)
- % dimer+ CD4+ cells [7]: 0.5%

Substance: DQ5^L114W/V143M dimer loaded with DDX3Y171-190 (peptide-MHC)
- percent multimer-positive CD4+ cells (number at the gate) [10]: 18.4%

Substance: DQ5^L114W/V143M+4reps dimer loaded with GPC3138-157 (from UniProt P51654 138-157) (peptide-MHC)
- percent multimer-positive CD4+ cells (number at the gate) [11]: 0.1%
- percent multimer-positive CD4+ cells (number at the gate) [12]: 0.2%
- percent multimer-positive CD4+ cells (number at the gate) (DQ5-06-GPC3138-157 TCR): 63.1%

Substance: DR1 dextramer (PE), CLIP (peptide-MHC)
- percent multimer-positive CD4+ cells (number at the gate) (DR1-restricted TCR HA1.7): 0.1%

Substance: NY-ESO-1157-170 DP4 dextramer (peptide-MHC)
- % dextramer+ CD4+ cells [9]: 0.4%

Substance: soluble CD4 (sCD4): human CD4 extracellular domain fused with a 6xHis tag via a GS linker, dimerized with a PE-labeled anti-6xHis tag mAb (from UniProt P01730 26-396) (receptor)
- EC50 (read off the curve) [13]: 100 nM

Substance: wild-type DQ5 dimer loaded with DDX3Y171-190 (peptide-MHC)
- percent multimer-positive CD4+ cells (number at the gate) [14]: 0%

— US20220291215A1, “METHODS OF IDENTIFYING T CELL RECEPTORS” (published 2022)
